Test results published in publication PMC8341910, “Structural and biophysical insights into the mode of covalent binding of rationally designed potent BMX inhibitors” (RSC Chemical Biology, 2020).
pIC50: −log10 of the molar value.

Sequences of proteins named here, by UniProt entry; tags and fusion partners are left off. Residues count along the entry.
UniProt P51813, whole entry: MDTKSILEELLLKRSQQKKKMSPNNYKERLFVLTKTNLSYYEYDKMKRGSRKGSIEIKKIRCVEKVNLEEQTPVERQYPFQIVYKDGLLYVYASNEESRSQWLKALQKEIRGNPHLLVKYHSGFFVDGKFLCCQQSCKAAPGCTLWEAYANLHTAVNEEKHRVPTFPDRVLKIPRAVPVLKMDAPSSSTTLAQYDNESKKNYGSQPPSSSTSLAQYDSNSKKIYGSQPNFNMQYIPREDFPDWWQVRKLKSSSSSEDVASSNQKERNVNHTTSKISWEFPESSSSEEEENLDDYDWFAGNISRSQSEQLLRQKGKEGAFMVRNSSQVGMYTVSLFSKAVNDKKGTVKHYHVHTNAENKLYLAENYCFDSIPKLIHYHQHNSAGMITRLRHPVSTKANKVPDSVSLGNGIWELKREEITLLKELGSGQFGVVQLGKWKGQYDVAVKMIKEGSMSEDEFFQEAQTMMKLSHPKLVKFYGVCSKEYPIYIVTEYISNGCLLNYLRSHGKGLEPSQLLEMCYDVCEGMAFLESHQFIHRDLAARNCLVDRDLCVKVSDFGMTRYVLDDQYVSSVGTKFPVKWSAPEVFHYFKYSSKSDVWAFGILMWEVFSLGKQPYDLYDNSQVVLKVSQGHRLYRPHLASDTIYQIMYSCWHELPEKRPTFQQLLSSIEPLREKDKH
UniProt P51813, 417-675 limits assumed: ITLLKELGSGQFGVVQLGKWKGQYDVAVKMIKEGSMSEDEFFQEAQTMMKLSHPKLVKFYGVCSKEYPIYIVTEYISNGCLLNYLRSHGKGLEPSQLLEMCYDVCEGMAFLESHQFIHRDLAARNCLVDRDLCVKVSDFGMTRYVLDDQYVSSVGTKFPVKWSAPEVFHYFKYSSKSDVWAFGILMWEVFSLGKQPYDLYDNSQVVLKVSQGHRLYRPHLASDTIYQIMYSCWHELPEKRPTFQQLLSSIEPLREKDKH

Columns and labels:
hBMX = hBMX (Homo sapiens, UniProt P51813); details: read-out: BMX IC50; Experiment 2 of Fig. S3; control commercial BMX-IN-1
[1] = Dynamic light scattering, colloidal aggregation; assay type: physicochemical; details: measured at 10 µM, 1 µM and 100 nM; water, 25 °C
[2] = biological target: recombinant human BMX protein (hBMX) (Homo sapiens, UniProt P51813); experiment: Differential scanning fluorimetry (DSF); assay type: binding; details: 100 μM compound

| SMILES | pIC50 (hBMX) | DLS maximum soluble concentration at which no aggregates are observed [1] | ΔTm ([2]; versus apo-BMX) | Average Tm of BMX with compound ([2]; apo-BMX Tm 51.8-52.2 °C) |
| --- | --- | --- | --- | --- |
| C=CC(=O)Nc1cc(Nc2c(C(=O)OCC)cnc3ccc(-c4ccc(NS(C)(=O)=O)cc4)cc23)ccc1C | 6.39 | < 0.1 µM | – | – |
| C=CC(=O)Nc1cc(-n2c(=O)ccc3cnc4ccc(-c5ccc(NC(=O)OC)cc5)cc4c32)ccc1C | 7.30 | – | 8.09±0.06 °C | 60.02±0.06 °C |
